Test system: mouse prostate organoids

C[C@]12CCC(=O)C[C@@H]1CC[C@@H]1[C@@H]2CC[C@]2(C)[C@@H](O)CC[C@@H]12 [DHT, dihydrotestosterone]
Expression of basal markers p63 and Cytokeratin 5 (RT-PCR) (ENR+1 nM DHT): downregulated
Expression of putative stem cell markers Lgr5 and Tnfrsf19 (RT-PCR) (ENR+1 nM DHT): downregulated

C[C@]12CC[C@H]3[C@@H](CCC4=CC(=O)CC[C@@]43C)[C@@H]1CC[C@@H]2O [testosterone]
Increase of growth/doublings (ENR vs ENR+1 nM DHT): up to 3 fold
Expansion of cultures compared with no testosterone (ENR+DiHydro Testosterone): expand the same as without testosterone
